Reference: ChEMBL document CHEMBL1134500, “Investigations of new lead structures for the design of selective estrogen receptor modulators” (J Med Chem, 2001)

The chains behind the UniProt entries cited, without tags or fusion partners.
UniProt Q9XSB5, whole entry, looked up: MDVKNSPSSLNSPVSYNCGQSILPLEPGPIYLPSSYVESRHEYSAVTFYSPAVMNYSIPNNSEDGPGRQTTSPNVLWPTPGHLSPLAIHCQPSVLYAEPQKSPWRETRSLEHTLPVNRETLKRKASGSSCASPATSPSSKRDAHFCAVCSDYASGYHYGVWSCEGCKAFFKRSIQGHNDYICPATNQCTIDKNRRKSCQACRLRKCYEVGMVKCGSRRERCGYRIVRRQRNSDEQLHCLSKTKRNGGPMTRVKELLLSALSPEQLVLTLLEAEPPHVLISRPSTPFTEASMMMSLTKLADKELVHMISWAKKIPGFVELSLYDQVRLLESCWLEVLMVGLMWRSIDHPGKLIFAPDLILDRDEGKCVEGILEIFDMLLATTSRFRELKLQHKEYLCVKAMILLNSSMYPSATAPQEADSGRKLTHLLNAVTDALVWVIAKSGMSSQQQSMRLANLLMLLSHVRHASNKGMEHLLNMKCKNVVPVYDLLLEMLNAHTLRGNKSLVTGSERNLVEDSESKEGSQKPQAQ
UniProt P49884, whole entry, looked up: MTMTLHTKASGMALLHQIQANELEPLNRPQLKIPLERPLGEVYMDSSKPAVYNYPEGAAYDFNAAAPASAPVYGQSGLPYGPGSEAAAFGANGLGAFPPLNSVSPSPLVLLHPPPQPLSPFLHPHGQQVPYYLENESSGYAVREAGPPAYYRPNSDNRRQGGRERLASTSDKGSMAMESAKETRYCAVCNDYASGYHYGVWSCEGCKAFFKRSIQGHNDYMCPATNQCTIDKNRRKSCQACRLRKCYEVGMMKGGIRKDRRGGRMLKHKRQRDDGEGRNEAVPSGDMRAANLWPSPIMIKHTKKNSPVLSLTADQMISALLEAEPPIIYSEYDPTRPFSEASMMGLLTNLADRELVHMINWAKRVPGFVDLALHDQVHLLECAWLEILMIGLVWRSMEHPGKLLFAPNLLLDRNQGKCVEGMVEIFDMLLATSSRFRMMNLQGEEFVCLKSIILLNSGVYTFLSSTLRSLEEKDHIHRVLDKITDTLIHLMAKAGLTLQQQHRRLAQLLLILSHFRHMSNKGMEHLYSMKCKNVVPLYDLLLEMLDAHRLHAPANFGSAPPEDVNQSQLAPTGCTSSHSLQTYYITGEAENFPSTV

Target: Estrogen receptor (Bos taurus) (UniProt Q9XSB5+P49884)
Assay: Displacement of 17-beta-[3H]-estradiol from estrogen receptor relative to 17-beta-estradiol
Assay type: protein assay
Method in brief: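 Competitive binding with calf uterine cytosol as receptor source and 17β-[3H]estradiol (0.723 pmol per tube) as tracer. Compounds were dissolved in ethanol, diluted in TRIS buffer to six to eight concentrations and incubated overnight at 4 °C. Free ligand was removed with dextran-charcoal (90 min, 4 °C), then supernatant was scintillation counted. Nonspecific binding was set with 2 nmol estradiol. RBA = ratio of 50%-inhibiting concentrations (estradiol/sample) × 100%.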

- RBA: 0.08%
SMILES: Oc1ccc([C@H]2N=CN[C@H]2c2c(Cl)cc(O)cc2Cl)c(Cl)c1
